# Biological target: GALK (Homo sapiens (Human), UniProt P51570)
# Protein sequences, listed by entry. Tags and fused reporters are not part of them. Lines headed by an entry give the natural chain unless they say otherwise; changes in a name come on top.
# UniProt P51570: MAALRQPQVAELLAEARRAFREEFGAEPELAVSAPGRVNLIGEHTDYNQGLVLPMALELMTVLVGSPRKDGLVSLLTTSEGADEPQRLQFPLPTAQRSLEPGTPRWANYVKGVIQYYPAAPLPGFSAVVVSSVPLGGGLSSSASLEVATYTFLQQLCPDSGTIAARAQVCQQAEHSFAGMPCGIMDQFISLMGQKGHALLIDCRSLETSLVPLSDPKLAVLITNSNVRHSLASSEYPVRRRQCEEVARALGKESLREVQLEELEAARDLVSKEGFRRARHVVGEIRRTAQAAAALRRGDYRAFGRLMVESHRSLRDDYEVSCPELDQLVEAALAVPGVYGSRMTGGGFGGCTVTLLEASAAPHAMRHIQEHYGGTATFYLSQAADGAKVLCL
# Assay: primary qHTS assay for inhibitors of GALK (KinaseGlo ATP depletion)
# Assay type: biochemical
# Conditions: 5 nM GALK, 35 μM ATP, 1 hr incubation
# Procedure: Assay details and protocol: The primary assay monitored ATP depletion using Promega's KinaseGlo™ technology, where ATP levels are measured through luminescence generated from firefly luciferase, a bioluminescent ATP-dependent enzymes. […] This was used as the positive control for the assay. […]
row,Structure (SMILES),IC50 [µM]
1,CC1=C(C(=O)Nc2ccc(C)cc2)C(c2ccccc2Br)N=C(Nc2nc3ccccc3o2)N1 (centres unmarked) [Compound 79],4.11
2,COc1ccccc1NC(=O)C1=C(C)NC(Nc2nc3ccccc3o2)=NC1c1ccccc1Br (centres unmarked) [Compound 80],3.66
3,CC1=C(C(=O)Nc2nccs2)C(c2ccccc2Br)N=C(Nc2nc3ccccc3o2)N1 (centres unmarked) [Compound 85],4.11

# Continued by falling IC50, values first:
row,IC50 [µM],Structure (SMILES)
1,76.9,O=C1CCCC2=C1C(c1cccnc1)N=C(Nc1nc3ccccc3o1)N2 (centres unmarked) [Compound 49]
2,18.8,O=C1CCCC2=C1C1(CCCC1)N=C(Nc1nc3cc(-c4ccccc4)ccc3o1)N2 [Compound 25]

# Source: patent publication US9447087B2, “Galactokinase inhibitors for the treatment and prevention of associated diseases and disorders” (UNIVERSITY OF UTAH RESEARCH FOUNDATION, priority 2011, dated 2016)
